Test results as given in article PMC12467390 (ACS infectious diseases, 2025).

The chains behind the UniProt entries cited, without tags or fusion partners. Where a name states a change or a piece, a line headed by the entry shows the natural chain unless it says otherwise.
UniProt A0A059WYP6: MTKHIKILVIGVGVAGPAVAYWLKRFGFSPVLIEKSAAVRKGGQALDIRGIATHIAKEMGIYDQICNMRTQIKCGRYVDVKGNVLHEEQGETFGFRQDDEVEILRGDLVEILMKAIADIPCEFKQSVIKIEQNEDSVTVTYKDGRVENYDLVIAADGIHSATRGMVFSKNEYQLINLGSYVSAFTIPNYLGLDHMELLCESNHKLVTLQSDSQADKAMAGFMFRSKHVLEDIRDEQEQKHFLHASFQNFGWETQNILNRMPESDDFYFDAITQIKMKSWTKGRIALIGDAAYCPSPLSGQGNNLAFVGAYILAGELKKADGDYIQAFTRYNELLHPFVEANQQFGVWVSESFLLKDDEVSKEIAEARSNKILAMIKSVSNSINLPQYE

Molecular target: Tet50 (Unknown prokaryotic organism, UniProt A0A059WYP6)
Test: Steady-state TC consumption assay
Type: biochemical
Details: blue light irradiation

With `Cc1c2c(c(O)c3c(O)cccc13)C(=O)[C@]1(O)C(=O)C(C(N)=O)=C(O)[C@@H](N(C)C)[C@@H]1C2` [aTC, anhydrotetracycline] the “Apparent decay constant of IC50 versus pre-incubation time” value was 0.6 ± 0.2 min⁻¹.
